One series concerns the target NEP24.11 (Homo sapiens, UniProt P08473). The experiment in a line: Tolerance of GLP-1 and its analogues to NEP24.11 (RP-HPLC remaining peak area). The following applies: peptide 30 μM, NEP24.11 1.0 ng/μL, 37° C.; for Remaining peak area (%)/NEP24.11: 0.0 h; for remaining at 0.5 h, 30 μM / remaining at 2 h, 30 μM / remaining at 4 h, 30 μM / remaining at 8 h, 30 μM: isolated NEP24.11 enzyme in buffer; for remaining at 0.5 h, 30 μM: pH 7.4, 0.5 h; for remaining at 2 h, 30 μM: pH 7.4, 2.0 h; for remaining at 4 h, 30 μM: pH 7.4, 4.0 h; for remaining at 8 h, 30 μM: pH 7.4, 8.0 h. The class given is in vitro ADME. As for the experimental part: (§1) Mix by centrifugation at 8000 rpm for 30 seconds.
Arrange a certain volume of 0.04 μg/μL NEP24.11 enzyme solution in another sterile EP.

Another series has as its target T1, trypsin (Bos taurus, UniProt P00760).
T1 sequence (P00760 24-246): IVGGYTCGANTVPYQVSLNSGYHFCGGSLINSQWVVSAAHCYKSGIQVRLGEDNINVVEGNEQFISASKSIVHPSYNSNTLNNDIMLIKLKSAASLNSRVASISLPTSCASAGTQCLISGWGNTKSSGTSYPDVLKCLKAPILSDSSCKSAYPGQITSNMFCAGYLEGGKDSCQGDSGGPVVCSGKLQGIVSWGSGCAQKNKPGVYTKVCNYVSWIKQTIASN
The experiment in a line: in vitro. The following applies: isolated enzyme trypsin, pH 7.8. How it is done:
FIG. 17. […] At different time point, 25 μL aliquots was taken out, and 10% (v/v) TFA was added to terminate the reaction.
as §1
Arrange a certain volume of 0.05 μg/μL trypsin solution in another sterile EP. Incubate the EP tubes containing peptides and enzymes at 37° C. for 5 min, and separately add 6 μL of trypsin solution to each EP tube containing peptides and mix well. Start timing and extract 25 μL of reaction solution at 1.5, 3.0, 4.5, 6.0 and 9.0 min later, respectively. Add 3.75 μL of 10% TFA to terminate the reaction and mix well by centrifugation at 8000 rpm for 30 seconds.
Arrange a certain volume of 0.05 μg/μL trypsin solution in another sterile EP. Incubate the EP tubes containing peptides and enzymes at 37° C. for 5 min, and add 9 μL of trypsin solution to each EP tube containing peptides and mix well. Start timing and extract 25 μL of reaction solution at 1.5, 3.0, 4.5, 6.0, 9.0, 15.0, 30.0, and 60.0 min later, respectively. Add 3.75 μL of 10% TFA to terminate the reaction and mix well by centrifugation at 8000 rpm for 30 seconds.
(§2) Referring to the experimental method in Example 5, in vitro stability of salmon Calcitonin analogs with oral administration activity to the enzymatic hydrolysis by trypsin, chymotrypsin and elastase were performed.
(§3) Referring to the experimental method in Example 5, in vitro stability of IL-17A inhibitory peptides towards the enzymatic hydrolysis by trypsin, chymotrypsin and elastase were performed.

The target in another series is DPP-IV (Homo sapiens, UniProt P27487). Kind of series: Tolerance of GLP-1 and its analogues to DPP-IV (RP-HPLC remaining peak area). The class given is in vitro ADME. As to conditions: peptide 25 μM, DPP-IV 0.5 ng/μL, 37° C.; for Remaining peak area (%)/DPP-IV: 0.0 h; for remaining at 0.5 h, 25 μM / remaining at 2 h, 25 μM / remaining at 4 h, 25 μM / remaining at 8 h, 25 μM / remaining at 12 h, 25 μM: isolated DPP-IV enzyme in buffer, pH 8. How it is done: as §1
(2) Arrange a certain volume of 0.005 μg/μL DPP-IV solution in another sterile EP.

The target in another series is chymotrypsin (Bos taurus, UniProt P00766). The experiment in a line: in vitro. The following applies: isolated enzyme chymotrypsin, pH 7.8, Remaining peak area (%)/chymotrypsin. How it is done: FIG. 18. […] At different time point, 25 μL aliquots was taken out, and 10% (v/v) TFA was added to terminate the reaction.
as §1
Arrange a certain volume of 0.05 μg/μL chymotrypsin solution in another sterile EP. Incubate the EP tubes containing peptides and enzymes at 37° C. for 5 min, and add 3 μL of […] solution to each EP tube containing peptides and mix well. Start timing and extract 25 μL of reaction solution at 1.5, 3.0, 4.5, 6.0 and 9.0 min later, respectively. Add 3.75 μL of 10% TFA to terminate the reaction and mix well by centrifugation at 8000 rpm for 30 seconds.
Arrange a certain volume of 0.05 μg/μL chymotrypsin solution in another sterile EP. Incubate the EP tubes containing peptides and enzymes at 37° C. for 5 min, and then add 4.5 μL of chymotrypsin solution to each EP tube containing peptides and mix well. Start timing and extract 25 μL of reaction solution at 1.5, 3.0, 4.5, 6.0, 9.0, 15.0, 30.0, and 60.0 min later, respectively. Add 3.75 μL of 10% TFA to terminate the reaction and mix well by centrifugation at 8000 rpm for 30 seconds.
as §2, §3

What is called amount remaining is the share of the starting amount still present when the sample was taken. As for `CC[C@H](C)[C@H](NC(=O)[C@H](Cc1ccccc1)NC(=O)[C@H](CCC(=O)O)NC(=O)[C@H](CCCCN)NC(=O)[C@H](C)NC(=O)[C@H](C)NC(=O)[C@H](CCC(N)=O)NC(=O)CNC(=O)[C@H](CCC(=O)O)NC(=O)[C@H](CC(C)C)NC(=O)[C@H](Cc1ccc(O)cc1)NC(=O)[C@H](CO)NC(=O)[C@H](CO)NC(=O)[C@@H](NC(=O)[C@H](CC(=O)O)NC(=O)[C@H](CO)NC(=O)[C@@H](NC(=O)[C@H](Cc1ccccc1)NC(=O)[C@@H](NC(=O)CNC(=O)[C@H](CCC(=O)O)NC(=O)[C@H](C)NC(=O)[C@H](Cc1c[nH]cn1)NC(=O)CNC(=O)CNC(=O)[C@@H](NC(=O)[C@@H]1CCCN1C(=O)[C@@H](NC(=O)CN)[C@@H](C)CC)[C@@H](C)CC)[C@@H](C)O)[C@@H](C)O)C(C)C)C(=O)N[C@@H](C)C(=O)N[C@@H](Cc1c[nH]c2ccccc12)C(=O)N[C@@H](CC(C)C)C(=O)N[C@H](C(=O)N[C@@H](CCCCN)C(=O)NCC(=O)N[C@@H](CCCNC(=N)N)C(=O)NCC(=O)NCC(=O)N[C@@H](CCCCN)C(=O)O)C(C)C` [D-GLP-1], on NEP24.11, the “Remaining peak area (%)/NEP24.11” value is 100.0 ± 0.0%; the share remaining at 0.5 h, 30 μM came out at 77.8 ± 7.8%; the fraction remaining at 2 h, 30 μM worked out at 53.7 ± 8.9%; the fraction remaining at 4 h, 30 μM was determined as 49 ± 7.3%. This molecule returned a fraction remaining at 8 h, 30 μM at NEP24.11 of 31.3 ± 6.4%. Besides, on trypsin, the fraction remaining at 0.025 h, 60 μM was 51.9 ± 3.7%; the fraction remaining at 0.05 h, 60 μM amounted to 36 ± 1.4%; the amount remaining at 0.075 h, 60 μM is 22.4 ± 1.4%; the amount remaining at 0.1 h, 60 μM amounted to 14.1 ± 1.5%. This molecule returned a share remaining at 0.15 h, 60 μM at trypsin of 4.7 ± 0.8%. Also, on DPP-IV, the “Remaining peak area (%)/DPP-IV” value is 100.0 ± 0.0%; the share remaining at 0.5 h, 25 μM worked out at 78.1 ± 1.8%; the fraction remaining at 2 h, 25 μM is 82.2 ± 3.4%; the amount remaining at 4 h, 25 μM turned out to be 79.8 ± 3.4%. At DPP-IV, the fraction remaining at 8 h, 25 μM was determined as 82.6 ± 2% and the share remaining at 12 h, 25 μM is 85.6 ± 2%. In addition, the “remaining prototype peptide after DPP-IV treatment” value on DPP-IV (12 hours) is 85.6%. Also, at chymotrypsin, the fraction remaining at 0.025 h, 60 μM was 77.3 ± 7%; the fraction remaining at 0.05 h, 60 μM was found to be 83.8 ± 3.6%; the share remaining at 0.075 h, 60 μM was determined as 77.9 ± 3.1%; the share remaining at 0.1 h, 60 μM amounted to 77.8 ± 1%. The share remaining at 0.15 h, 60 μM at chymotrypsin worked out at 77.4 ± 1.4%.

On to `CC[C@H](C)[C@H](NC(=O)[C@H](Cc1ccccc1)NC(=O)[C@H](CCC(=O)O)NC(=O)[C@H](CCCCN)NC(=O)[C@H](C)NC(=O)[C@H](C)NC(=O)[C@H](CCC(N)=O)NC(=O)CNC(=O)[C@H](CCC(=O)O)NC(=O)[C@H](CC(C)C)NC(=O)[C@H](Cc1ccc(O)cc1)NC(=O)[C@H](CO)NC(=O)[C@H](CO)NC(=O)[C@@H](NC(=O)[C@H](CC(=O)O)NC(=O)[C@H](CO)NC(=O)[C@@H](NC(=O)[C@H](Cc1ccccc1)NC(=O)[C@@H](NC(=O)CNC(=O)[C@H](CCC(=O)O)NC(=O)[C@H](C)NC(=O)[C@H](Cc1c[nH]cn1)NC(=O)CNC(=O)CNC(=O)[C@@H]1CSSC[C@H](NC(=O)CNC(=O)CN)C(=O)N2CCC[C@H]2C(=O)N[C@@H](CCCCN)C(=O)N[C@@H]([C@@H](C)CC)C(=O)N[C@@H](CC(C)C)C(=O)N[C@@H](CCC(N)=O)C(=O)N[C@@H](CCCNC(=N)N)C(=O)N1)[C@@H](C)O)[C@@H](C)O)C(C)C)C(=O)N[C@@H](C)C(=O)N[C@@H](Cc1c[nH]c2ccccc12)C(=O)N[C@@H](CC(C)C)C(=O)N[C@H](C(=O)N[C@@H](CCCCN)C(=O)NCC(=O)N[C@@H](CCCNC(=N)N)C(=O)NCC(=O)NCC(=O)N[C@@H](CCCCN)C(=O)O)C(C)C` [T-GLP-1], for which, at NEP24.11, the “Remaining peak area (%)/NEP24.11” value is listed as 100.0 ± 0.0%; the share remaining at 0.5 h, 30 μM was 65.8 ± 10.3%; the fraction remaining at 2 h, 30 μM came to 43.3 ± 8%; the share remaining at 4 h, 30 μM was 48.5 ± 5.6%. Besides, the fraction remaining at 8 h, 30 μM on NEP24.11 was found to be 40.3 ± 3.6%. In addition, on trypsin, the fraction remaining at 0.025 h, 60 μM came to 60.9 ± 1.1%; the fraction remaining at 0.05 h, 60 μM stood at 52.8 ± 0.9%; the share remaining at 0.075 h, 60 μM worked out at 53.6 ± 9.7%; the amount remaining at 0.1 h, 60 μM was found to be 41.6 ± 3.6%. The molecule further had an amount remaining at 0.15 h, 60 μM on trypsin of 27.6 ± 0.1%. For the same molecule, at DPP-IV, the “Remaining peak area (%)/DPP-IV” value came out at 100.0 ± 0.0%; the share remaining at 0.5 h, 25 μM was 67.7 ± 0.8%; the share remaining at 2 h, 25 μM worked out at 69.9 ± 2.2%; the amount remaining at 4 h, 25 μM was 67.5 ± 3.5%. At DPP-IV, the amount remaining at 8 h, 25 μM came out at 68.8 ± 1.5% and the share remaining at 12 h, 25 μM worked out at 68.2 ± 2.6%. At chymotrypsin, this molecule came in with an amount remaining at 0.025 h, 60 μM of 58 ± 1.2%; a share remaining at 0.05 h, 60 μM of 60.1 ± 2.7%; a fraction remaining at 0.075 h, 60 μM of 55.6 ± 2.9%; a fraction remaining at 0.1 h, 60 μM of 55.1 ± 3.6%. On chymotrypsin, this molecule came in with a fraction remaining at 0.15 h, 60 μM of 52.6 ± 1.7%.

Source of the values: US20230416329A1, “A PEPTIDE WITH DISULFIDE BONDS AND INHIBITORY ACTIVITY AGAINST SERINE PROTEASES, DERIVED HYBRID PEPTIDES THEREOF, AND USES THEREOF” (INSTITUTE OF MATERIA MEDICA , CHINESE ACADEMY OF MEDICAL …, priority 2020, published 2023).
